Test results: EP2060268A1, “Pharmaceutical compositions for pulmonary or nasal delivery of peptides” (NOVO NORDISK A/S, priority 2007, dated 2009)

Assay: Pharmacokinetics after intra-tracheal dry powder delivery to anaesthetised pigs
Assay type: in vivo
Settings: pig, inhaled or intranasal, pramlintide/insulin aspart powder delivered intra-tracheally, plasma, read-out: Absolute bioavailability
Protocol: For pulmonary delivery the PennCentury™ DP-4 dry powder insufflator (Penn-Century Inc) modified for pigs was used in combination with the PennCentury™ adjustable air pump, model AP-1 (Penn-Century Inc). The powder is weighed into the sample chamber of the device and manually emitted from the device by using the AP-1 adjustable pump.
The pigs were fasted for approximately 18 h before the experiment. Anaesthesia was induced by injecting Domitor IV (1 mg/mL, 0.4 mL/pig), followed by slow IV infusion of Propofol (10 mg/ml) until the sufficient depth of anaesthesia was obtained, approximately 10-15 mL/pig in total. Atropin (1 mg/ml, 0.5 mL/pig) was injected i.m. to stabilize cardiac parameters and to decrease bronchial secretions. After anaesthesia (and) the pigs were intubated with an endotracheal tube size 8.0 mm. Via an L-piece and the endotraceal tube the pigs were connected to a respirator, with respiration frequency set to 10/min and tidal volume to 300 mL/breath to mimic deep inhalations in humans. […]
Insulin aspart was analyzed using an in-house LOCI sandwich immunoassay with two different antibodies. […] Pramlintide was analyzed using a commercially available human amylin ELISA kit modified for porcine samples (Linco Research, cat. no. EZHA-52K). […]

bioavailability: 5.1 ± 3.1%
Structure (SMILES): CC[C@H](C)[C@H](NC(=O)[C@@H]1CCCN1C(=O)CNC(=O)[C@H](Cc1ccccc1)NC(=O)[C@H](CC(N)=O)NC(=O)[C@H](CC(N)=O)NC(=O)[C@H](CO)NC(=O)[C@H](CO)NC(=O)[C@H](Cc1c[nH]cn1)NC(=O)[C@@H](NC(=O)[C@H](CC(C)C)NC(=O)[C@H](Cc1ccccc1)NC(=O)[C@H](CC(N)=O)NC(=O)[C@H](C)NC(=O)[C@H](CC(C)C)NC(=O)[C@H](CCCNC(=N)N)NC(=O)[C@H](CCC(N)=O)NC(=O)[C@@H](NC(=O)[C@H](C)NC(=O)[C@@H]1CSSC[C@H](NC(=O)[C@@H](N)CCCCN)C(=O)N[C@@H](CC(N)=O)C(=O)N[C@@H]([C@@H](C)O)C(=O)N[C@@H](C)C(=O)N[C@@H]([C@@H](C)O)C(=O)N1)[C@@H](C)O)C(C)C)C(=O)N[C@@H](CC(C)C)C(=O)N1CCC[C@H]1C(=O)N1CCC[C@H]1C(=O)N[C@H](C(=O)N[C@@H](CC(N)=O)C(=O)N[C@H](C(=O)NCC(=O)N[C@@H](CO)C(=O)N[C@@H](CC(N)=O)C(=O)N[C@H](C(=O)N[C@@H](Cc1ccc(O)cc1)C(N)=O)[C@@H](C)O)C(C)C)[C@@H](C)O [Symlin, ^25,28,29Pro-h-amylin]
